Measured values: paper PMC8707461, “In Vitro and In Vivo Inhibition of MATE1 by Tyrosine Kinase Inhibitors” (Pharmaceutics, 2021)

What was measured:
[1] = tested on: mouse OCT2, or MATE1 transporters; conditions: oxaliplatin 50 µM
[2] = tested on: human OCT2, or MATE1 transporters; conditions: oxaliplatin 50 µM

SMILES: O=C1[O][Pt]2([NH][C@@H]3CCCC[C@H]3[NH]2)[O]C1=O [Oxaliplatin]
- increase in oxaliplatin uptake, murine transporters vs empty vector [1]: 15 fold
- increase in oxaliplatin uptake, human transporters vs empty vector [2]: 3 fold
